Values quoted from earlier work, collected in patent US5377676A, “Method for determining the biodistribution of substances using fluorescence spectroscopy” (Cedars-Sinai Medical Center, priority 1993, dated 1995).

Settings: in vivo; cited from earlier work

hematoporphyrin derivative [HPD]
Skin accumulation / skin photosensitivity: tendency to accumulate in the skin and cause a prolonged skin photosensitivity
